# Yeast mating assay 1: variants of the scFv Ab-14

Data: MIT Lincoln Laboratory AlphaSeq set, Engelhart et al. 2022, doi:10.1038/s41597-022-01779-4, as distributed in FLAb.

Target peptide (SARS-CoV-2 spike, HR2 region): PDVDLGDISGINAS

The variants keep the light chain, the linker and the frameworks of Ab-14 (scFv order VH, a 15-residue (Gly4Ser)3 linker, VL).
VH: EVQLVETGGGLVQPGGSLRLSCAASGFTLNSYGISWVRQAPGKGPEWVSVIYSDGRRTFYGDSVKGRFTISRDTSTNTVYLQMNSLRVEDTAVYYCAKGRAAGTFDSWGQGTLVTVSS
VL: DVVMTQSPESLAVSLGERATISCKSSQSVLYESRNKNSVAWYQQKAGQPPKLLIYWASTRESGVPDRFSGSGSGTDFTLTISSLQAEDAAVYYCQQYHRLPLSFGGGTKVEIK

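The parent was found by panning a naive human phage display library on the peptide. Variants in AAYL49 differ from the parent at up to three CDR positions; double and triple changes were sampled at random. Affinity was read by AlphaSeq, a pooled yeast mating assay with surface-displayed partners. The frequency of each diploid, read from paired DNA barcodes, reflects how well the two displayed proteins bind. A regression on co-assayed BCL2-family reference pairs converts the normalised counts of each replicate to an apparent Kd. Each pool was mated in three replicate cultures.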

Variants are written as CDR1, CDR2 and CDR3 of the heavy chain (limits as in the source). Parent: GFTLNSYGIS, VIYSDGRRTFYGDSVK, GRAAGTFDS.
Values are log10 of the apparent Kd in nM; lower means stronger binding.
Averages over replicates are reported, and they cover detected replicates only.
An entry "nd" has no value in the source: the pair was not observed among the diploids in any replicate. This suggests poor binding but is not conclusive.
Three control strains display no target. For library AAYL49, 15% of the pairings with them gave a signal, with a median of 4.06 and one signal in twenty below 2.83, so weak values seen in few replicates may be background. Also given: how often the same scFv was detected with the empty control strains.

CDR-H1	CDR-H2	CDR-H3	log10 Kd (nM), mean	replicates with signal	control signals
GFTLNSYGIS	VIYSDQRRTFYGDSVK	GRAAGTYDS	nd	0 of 3	0 of 9
GFTLPSYGIS	VIYSDGRRTFYGDSVK	GRAAGTFKS	1.84	3 of 3	0 of 9
GFTLNSYGNS	VIYSDGMRTFYGSSVK	GRAAGTFDS	nd	0 of 3	1 of 9
GFTLNSYGIS	VIYSDGRITFYGDSVK	GRAAGTFDH	nd	0 of 3	0 of 9
GFTENSYGIA	VIYSDGRRTFYGDSVK	LRAAGTFDS	nd	0 of 3	0 of 9
GFTLNSCEIS	VIYSDGRRTFYGDSVK	HRAAGTFDS	5.60	3 of 3	5 of 9
GFVLNSYGIS	TIYSDGRRTFYSDSVK	GRAAGTFDS	nd	0 of 3	0 of 9
GFTLNSFGIS	VIYSDGRRTFYGDSVK	GRAAVTFDS	nd	0 of 3	1 of 9
GFTLNSYGIS	VIYSDGRRTFYGDSVK	GRRAHTFHS	4.41	1 of 3	2 of 9
GFQLNSYGIS	VIYSDGRRTFYGAAVK	GRAAGTFDS	nd	0 of 3	0 of 9
GFTLNSYGIS	VIYSDGRRTFYWDSVG	GWAAGTFDS	nd	0 of 3	4 of 9
GFTLNSYGQE	VIYSDGRRTSYGDSVK	GRAAGTFDS	nd	0 of 3	2 of 9
GFTLNSYGIS	VIYSDIRRTFDGDSVP	GRAAGTFDS	2.73	1 of 3	2 of 9
GFTLNSYGIS	VLYSDGRRNLYGDSVK	GRAAGTFDS	3.34	1 of 3	0 of 9
GDTLNSYGIS	VIYSDGRRTFYHDSVW	GRAAGTFDS	1.72	3 of 3	6 of 9
GFTDNSYGIS	VIYGDGRRTFQGDSVK	GRAAGTFDS	nd	0 of 3	2 of 9
GDQLNSYGIS	VIYSDGRRTFYADSVK	GRAAGTFDS	0.80	3 of 3	5 of 9
GFTLNSYGIS	VIYSDGRRTFYGDSVK	GRAACTMDS	nd	0 of 3	0 of 9
GFTLNSYGIS	VDYSDGQRTFYGDSVK	GRAAGTFWS	4.13	2 of 3	3 of 9
GFTLNSYGIS	VIYSDGRRTFYGDSHK	GRAMGTFDN	4.02	1 of 3	2 of 9
GFGLNSYGIS	LIYSDGRRTRYGDSVK	GRAAGTFDS	3.34	1 of 3	3 of 9
GFTLNSYGIS	VIYSDGRRTFGEDSVK	GRAAGTFDQ	nd	0 of 3	2 of 9
MFTLNSYGIS	VIYSDGRRTFYGESVK	GRAARTFDS	nd	0 of 3	0 of 9
GFTLNSYGIS	VVYSSGRKTFYGDSVK	GRAAGTFDS	nd	0 of 3	0 of 9
EFTLNSYGIS	VIYSDGRRTFYGDSVK	GREIGTFDS	nd	0 of 3	1 of 9
GFTLNSYMIS	VIYSDGRRTFPGDSVK	GHAAGTFDS	nd	0 of 3	1 of 9
GFTLNSYGIS	DIYSDGRRTFYGDRVK	GRAAGTFDT	nd	0 of 3	0 of 9
GFTLNSSGIS	VIYSDGRRVFYGDSVK	GRGAGTFDS	3.98	2 of 3	4 of 9
SFTLNSYGIS	VIYSDGRRTFYGDAVK	GDAAGTFDS	1.57	3 of 3	0 of 9
GFTLLSYGIS	VIHSDGRRFFYGDSVK	GRAAGTFDS	nd	0 of 3	0 of 9
GFTLNSYGIS	VIYSDGRQTFYGDSVA	GRAAKTFDS	3.36	3 of 3	1 of 9
GWTLSSYGIS	VIYSDGRFTFYGDSVK	GRAAGTFDS	5.06	3 of 3	7 of 9
TFTLNSYGIS	VIFSQGRRTFYGDSVK	GRAAGTFDS	4.67	1 of 3	2 of 9
GFTLNSYGIS	VIYWDGRRTFYGDHVK	GRAAGTFCS	4.76	2 of 3	2 of 9
GFTLNSYGKS	VIYSDGRRTFYGDSVK	GRAAGTFSS	5.33	3 of 3	5 of 9
NFTLNSYGIS	VIYSDGRRTFYGDSVI	GRAAGTFFS	nd	0 of 3	1 of 9
GKTFNSYGIS	VIYSVGRRTFYGDSVK	GRAAGTFDS	nd	0 of 3	2 of 9
GFTLSSYGIS	VIYSDGRRTFYGDRVK	GRAAGNFDS	2.22	3 of 3	4 of 9
GFTLNSYRIS	VIYSDGRRTFYGDSNK	GRAAGTFNS	nd	0 of 3	0 of 9
GFTLNSYGIS	VDYSDGRRTFYSDSVK	GRAAGTFDS	2.89	1 of 3	1 of 9
YFTLNSCGIS	VIYSDGRRTFYGDSVK	GRYAGTFDS	4.72	1 of 3	1 of 9
GPTLNSYGIS	VIYRDGRRTFYGDSVK	GRAAITFDS	2.03	1 of 3	0 of 9
GFYLNSYGIS	VIYSDGRRTFYGFSVK	GRAAGTFDS	nd	0 of 3	0 of 9
GFTLNSYGHS	VIYSDGRGTFYGDMVK	GRAAGTFDS	4.97	1 of 3	4 of 9
GFPLNSYGIS	VIYSDGRRTFYGDSVK	MRAAGTFDN	4.04	2 of 3	0 of 9
GFTLNSYGIS	WIYSDGRFTFYGDSVK	GKAAGTFDS	nd	0 of 3	1 of 9
GFTLNSYGIS	VINSDGRSTFYGDSSK	GRAAGTFDS	4.71	1 of 3	2 of 9
GFTLNSYGIY	VEYSDGRRTFYGDSIK	GRAAGTFDS	4.87	1 of 3	2 of 9
GFTLNSYGIS	VIYMDGRRTFWFDSVK	GRAAGTFDS	nd	0 of 3	0 of 9
GFTLMSYGIS	WIYSDKRRTFYGDSVK	GRAAGTFDS	4.48	1 of 3	2 of 9
GFTLNSYGIS	VIYSDGRRTFYGDDVK	GRSAGTFDW	1.72	3 of 3	2 of 9
GFTLNSYGIS	FGYSDGRRTFYGDSVK	GREAGTFDS	nd	0 of 3	0 of 9
GFTLNSYVIS	VIYYDGRRPFYGDSVK	GRAAGTFDS	nd	0 of 3	0 of 9
GFTLNSYGIS	VIYSTGRITFYGDSVK	GRAAGTFTS	3.45	1 of 3	1 of 9
GFTLNSYGIS	VIYSDGRRTFYGDSVK	GRASGKFDS	nd	0 of 3	0 of 9
GFTLRSYGIS	VIYSDGRRTFVGDSVK	GLAAGTFDS	4.01	1 of 3	1 of 9
GFTLNSYGIQ	VIYSDGRRTFYGDSVK	GRAWGTWDS	3.03	1 of 3	2 of 9
GFTLNSYGIS	VMYSDGRRTFYGDSVK	GRATITFDS	nd	0 of 3	1 of 9
GWTLNSYGIS	VIYSDGRRTFYGWSVK	GRAAGTFDS	nd	0 of 3	0 of 9
GFTLNSYGIS	VIYSNGTRTFYGDSVK	GRAACTFDS	nd	0 of 3	0 of 9
GFTLNSYGIS	VIYSDGRETFYSDSVK	ERAAGTFDS	nd	0 of 3	0 of 9
GSTLNSYGIY	VITSDGRRTFYGDSVK	GRAAGTFDS	4.80	1 of 3	4 of 9
GFTLNSYGIS	VIYSDGRRTFYGFSVK	SRAKGTFDS	3.53	1 of 3	2 of 9
GFTLNTYGIS	VIYSCGRRTFYGDSCK	GRAAGTFDS	nd	0 of 3	0 of 9
GFTLNSYGIS	VIYSDGRRTFNIDSVK	GRAAGTKDS	nd	0 of 3	0 of 9
GFLLNSYGIS	IIYSDGRRTFYGDSWK	GRAAGTFDS	3.26	2 of 3	1 of 9
GNTLNSYGIV	VIYSDGRRTFVGDSVK	GRAAGTFDS	nd	0 of 3	0 of 9
GFTLCSYGIS	VIYSDGRRTVYGDSVK	GRAAGWFDS	3.22	1 of 3	2 of 9
GFTLNSYFIS	VIYSDGRRTFYGDSVK	GRPAGTFDS	nd	0 of 3	0 of 9
GFTLNSYGRL	VIYSDGRRTFYGDSVK	GRQAGTFDS	4.76	1 of 3	3 of 9
GFTLNKYGIS	VIYSDGRRTPYGDSVK	GRAAGTFAS	nd	0 of 3	0 of 9
GFTLNSYGIS	VIYSDGRRTFYGVSVK	CRAAGQFDS	nd	0 of 3	1 of 9
GFTLNSYGIT	VIYSDGRRMTYGDSVK	GRAAGTFDS	nd	0 of 3	0 of 9
GFTYNSGGIF	VIYSDGRRTFYGDSVK	GRAAGTFDS	4.58	1 of 3	3 of 9
GFFLNSYGIS	VIYSDGRRTFYSDSVK	GRAVGTFDS	nd	0 of 3	3 of 9
GFTLNSYQIV	VIYSDGRRTFYGDSVG	GRAAGTFDS	3.59	1 of 3	2 of 9
GFGLNSYGIS	VIGSDGRRTFYGDSVK	GRARGTFDS	nd	0 of 3	0 of 9
GFLLNSFGIS	VIYSDGRRTFYGDSVK	GRAAVTFDS	2.56	3 of 3	1 of 9
GFTLNSRGIS	VIYSDGRRTFYGDSVK	GQAATTFDS	nd	0 of 3	0 of 9

Top 11 of the variants detected in all replicates, tightest first:

CDR-H1	CDR-H2	CDR-H3	log10 Kd (nM), mean	replicates with signal	control signals
GDQLNSYGIS	VIYSDGRRTFYADSVK	GRAAGTFDS	0.80	3 of 3	5 of 9
SFTLNSYGIS	VIYSDGRRTFYGDAVK	GDAAGTFDS	1.57	3 of 3	0 of 9
GDTLNSYGIS	VIYSDGRRTFYHDSVW	GRAAGTFDS	1.72	3 of 3	6 of 9
GFTLNSYGIS	VIYSDGRRTFYGDDVK	GRSAGTFDW	1.72	3 of 3	2 of 9
GFTLPSYGIS	VIYSDGRRTFYGDSVK	GRAAGTFKS	1.84	3 of 3	0 of 9
GFTLSSYGIS	VIYSDGRRTFYGDRVK	GRAAGNFDS	2.22	3 of 3	4 of 9
GFLLNSFGIS	VIYSDGRRTFYGDSVK	GRAAVTFDS	2.56	3 of 3	1 of 9
GFTLNSYGIS	VIYSDGRQTFYGDSVA	GRAAKTFDS	3.36	3 of 3	1 of 9
GWTLSSYGIS	VIYSDGRFTFYGDSVK	GRAAGTFDS	5.06	3 of 3	7 of 9
GFTLNSYGKS	VIYSDGRRTFYGDSVK	GRAAGTFSS	5.33	3 of 3	5 of 9
GFTLNSCEIS	VIYSDGRRTFYGDSVK	HRAAGTFDS	5.60	3 of 3	5 of 9